The record followed here is PubChem BioAssay AID588493 (Sanford-Burnham Center for Chemical Genomics, 2011).

The chains behind the UniProt entries cited, without tags or fusion partners.
UniProt O00487, whole entry: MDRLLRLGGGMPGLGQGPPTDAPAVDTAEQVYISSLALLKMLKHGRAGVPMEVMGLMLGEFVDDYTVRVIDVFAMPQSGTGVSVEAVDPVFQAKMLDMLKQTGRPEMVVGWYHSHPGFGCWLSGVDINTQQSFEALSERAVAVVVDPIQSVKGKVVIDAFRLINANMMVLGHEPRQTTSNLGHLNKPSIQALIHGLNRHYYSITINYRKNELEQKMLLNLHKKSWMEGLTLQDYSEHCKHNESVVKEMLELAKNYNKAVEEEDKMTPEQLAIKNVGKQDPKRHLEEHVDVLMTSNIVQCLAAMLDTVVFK

Only a part is listed here, and it is no random draw. Calls of active or inactive are those of the source.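 The calls were made as follows: active = inhibition at 20 µM, scaled to each plate's controls, above about 33% (limit read from the data); inactive = the rest.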

The target of the test is 26S proteasome non-ATPase regulatory subunit 14 (Homo sapiens) (UniProt O00487). The experiment in a line: inhibition of 26S proteasome subunit Rpn11 – biochemical, fluorescence polarization, uHTS, primary screen (AID 588493). To be noted: human 26S proteasome, Ub4-pepOG fluorescence polarization; at 20 µM; stronger effect = higher value; 20S core pre-blocked with epoxomicin. For orientation: Polarisation of emitted light reports the rotation of a fluorescent probe.
One may read the inhibition as the relative decrease from the control value, in per cent. In the case of `CC(=O)N(c1ccccc1)C1CCNCC1`, the inhibition was inactive: 3%.
Regarding `COc1cccc(C(c2nnnn2C2CCCCC2)N2CCC(n3c(=O)[nH]c4ccccc43)CC2)c1OC` (stereo unspecified), the inhibition was inactive: 9.4%.
To `CCC(c1nnnn1C1CCCCC1)N1CCC(n2c(=O)[nH]c3ccccc32)CC1` (stereo unspecified) belongs inactive: -5.4%; to `O=c1[nH]c2ccccc2n1C1CCN(C(c2ccnc3ccccc23)c2nnnn2C2CCCCC2)CC1` (stereo unspecified), inactive: 6.2%.
To `COc1cc(OC)cc(C(=O)NCC2(N3CCCCC3)CCCCC2)c1` belongs inactive: -1.2%; to `Cc1ccc(C(=O)NCC2(N3CCCCC3)CCCCC2)o1`, inactive: 5.2%; to `Fc1ccccc1NC1CCN(Cc2ccccc2)CC1`, inactive: 3.5%.
`Cc1ccc(NC2(C#N)CCN(Cc3ccccc3)CC2)cc1`: the inhibition was inactive: 3.4%.
To `Cc1ccccc1NC1(C#N)CCN(Cc2ccccc2)CC1` belongs inactive: -3.6%.
Take `CC(C)(C)n1nnnc1C(c1ccnc2ccccc12)N1CCC(n2c(=O)[nH]c3ccccc32)CC1` (stereo unspecified): the inhibition was inactive: -6.4%.
To `COc1ccc(C(c2nnnn2C2CCCCC2)N2CCC(n3c(=O)[nH]c4ccccc43)CC2)cc1` (stereo unspecified) belongs inactive: 8.9%.
For the molecule `CCN1CCC(Nc2cccc(F)c2)CC1`, the inhibition is inactive: -6.9%.
`O=C(NCC1(N2CCCCC2)CCCCC1)c1ccco1`: the inhibition is inactive: 4.2%.
For the molecule `Cn1c(=O)[nH]cc(N(CCCl)CCCl)c1=O`, the inhibition is inactive: 0.4%.
With `CN(C)c1ccc(C(=O)NCC2(N3CCCCC3)CCCCC2)cc1`, the inhibition was inactive: 4.2%.
In the case of `CCOc1ncccc1C(=O)NCC1(N2CCOCC2)CCCCC1`, the inhibition was inactive: -0.5%.
On to `CN1CCC(Nc2ccc(F)c(Cl)c2)CC1`, for which the inhibition is inactive: -1.7%.
To `CC(C)(C)OC(=O)N1CCC(Nc2ccccc2)CC1` belongs inactive: -10.7%; to `O=C(O)C1(Nc2ccccc2)CCN(Cc2ccccc2)CC1`, inactive: -1.8%; to `CCCOc1ccc(C(=O)NCC2(N(C)C)CCCCC2)cc1`, inactive: -2.9%.
As for `O=c1[nH]c2ccccc2n1C1CCN(C(c2cc3ccccc3o2)c2nnnn2C2CCCC2)CC1` (stereo unspecified), the inhibition is inactive: 7.6%.
Consider `COc1cc(OC)cc(C(=O)NCC2(N3CCOCC3)CCCCC2)c1`, for which the inhibition was inactive: -3%.
To `COc1cccc(C(c2nnnn2C2CCCC2)N2CCC(n3c(=O)[nH]c4ccccc43)CC2)c1OC` (stereo unspecified) belongs inactive: 3.8%; to `COc1cccc(C(=O)N(c2cc(C)cc(C)c2)C2CCN(C(=O)OC(C)(C)C)CC2)c1`, inactive: -2.1%; to `CCC(CO)(C(=O)OC1CN2CCC1CC2)c1ccccc1` (stereo unspecified), inactive: 1.5%.
To `CN1CCC(Nc2ccc(Cl)cc2)CC1` belongs inactive: -5.4%; to `CCCCn1nnnc1C(c1ccccc1)N1CCC(n2c(=O)[nH]c3ccccc32)CC1` (stereo unspecified), inactive: 11.1%; to `COc1cc(C(=O)NCC2(N3CCOCC3)CCCCC2)cc(OC)c1C`, inactive: 1.3%.
Take `O=C(NCC1(N2CCOCC2)CCCCC1)c1cc(Br)ccc1Cl`: the inhibition was inactive: -1.2%.
The figure for `O=c1[nH]c2ccccc2n1C1CCN(C(c2cccs2)c2nnnn2C2CCCCC2)CC1` (stereo unspecified) is inactive: 14.2%; for `COc1ccc(C(=O)NCC2(N3CCOCC3)CCCCC2)cc1OC` it is inactive: -4.3%; for `O=c1[nH]c2ccccc2n1C1CCN(C(c2ccnc3ccccc23)c2nnnn2C2CCCC2)CC1` (stereo unspecified) it is inactive: 5.3%.
For `COc1cccc(C(c2nnnn2C(C)(C)C)N2CCC(n3c(=O)[nH]c4ccccc43)CC2)c1OC` (stereo unspecified), the inhibition is inactive: -8.7%.
Turning to `CCOC(=O)N1CCC(Nc2ccc(C)cc2)CC1`, the inhibition is inactive: -5.5%.
To `N/C(=N\O)c1c(N)no[n+]1[O-]` belongs inactive: -5%.
Regarding `O=C(OC1CN2CCC1CC2)C1c2ccccc2C=Cc2ccccc21` (stereo unspecified), the inhibition was inactive: 1.6%.
The figure for `O=c1[nH]c2ccccc2n1C1CCN(C(c2cccs2)c2nnnn2C2CCCC2)CC1` (stereo unspecified) is inactive: 8.4%; for `CCCCn1nnnc1C(c1cccc(OC)c1OC)N1CCC(n2c(=O)[nH]c3ccccc32)CC1` (stereo unspecified) it is inactive: 5.3%.
Regarding `N#Cc1ccc(C(=O)NCC2(N3CCCCC3)CCCCC2)cc1`, the inhibition is inactive: -6.4%.
In the case of `CC(C)(C)OC(=O)N1CCC(N(C(=O)c2ccccc2)c2ccc(Cl)cc2)CC1`, the inhibition was inactive: 2.8%.
Regarding `CN(C)C1(CNC(=O)c2cccc(C#N)c2)CCCCC1`, the inhibition is inactive: -6.7%.
Regarding `c1ccc(CN2CCC(Nc3ccccc3)CC2)cc1`, the inhibition was inactive: 1%.
Consider `O=c1[nH]c2ccccc2n1C1CCN(C(c2ccccc2)c2nnnn2C2CCCC2)CC1` (stereo unspecified), for which the inhibition is inactive: 4.4%.
`CCCN1CCC(Nc2cc(OC)cc(OC)c2)CC1`: the inhibition is inactive: -23.7%.
To `Cc1cc(N(CCCl)CCCl)ccc1C=O` belongs inactive: -2.3%.
On to `CC(C)(C)n1nnnc1C(c1cccc2ccccc12)N1CCC(n2c(=O)[nH]c3ccccc32)CC1` (stereo unspecified), for which the inhibition is inactive: 3.6%.
